Experimental data as given in publication PMC10303687 (2023).

T1: p53_Mt (bay mussel, UniProt Q539B9)
T1 chain: SQETFEYLWNTL


Legend:
[1] = target: T1, p53_Mt; assay: stopped flow koff/kon 10 C
[2] = target: p53_Hs (Homo sapiens (Human), UniProt P04637); assay: stopped flow koff/kon 10 C

Kd [1] [µM]	Kd [2] [µM]	Binder
15	–	MDM2_Mt (protein) EECVVNYPMVRPRREFLDILKQVGASWEVLTRKEVCSYLKDYIGSRQLYNPNDPSIVFCKKDPLGKVFGVDKFTFTEATKLIDANCDQLPD
–	0.011	MDM2_Hs (protein) SQIPASEQETLVRPKPLLLKLLKSVGAQKDTYTMKEVLFYLGQYIMTKRLYDEKQQHIVYCSNDLLGDLFGVPSFSVKEHRKIYTMIYRNLVVVN
